# Hits are enriched below; roughly 0.72% of the tested compounds scored in any of these assays.
# Mito fusion act: mitochondrial division inhibition or fusion activation; S. cerevisiae fusion-defective mutant growth rescue, CellTiterGlo 48 h; Potency, µM (doses to about 46.1 µM), without a hit: top-dose growth rescue (activation), actives largely listed as activators; hit rate 0.23% among 320,000; also: potency is read from the fitted curve at half-maximal effect; % of control where 0% means no effect; nearly all actives have a fitted effect of over 45% in size
#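 Yeast fusion mutant, YPEG (non-fermentable carbon), compound, 48 h at 37C non-permissive; CellTiterGlo added, 10 min RT, luminescence read. Rescued growth = division inhibition.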
# RXFP1 antagonist: RXFP1 (human) relaxin receptor antagonism; AID 1259400; HEK293-RXFP1, relaxin-stimulated cAMP HTRF, 30 min; stronger effect = lower value; hit rate 0.59% among 350,000; activity change, negative = inhibition, % at 57.5 µM;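 active = activity change of -60% or lower, but not beyond a set lower limit; inconclusive = change between -60% and -40%, or beyond the set limit; inactive = change above -40%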; also: % is scaled to controls: 0 for no effect and ±100 for the full control effect
# S-ASM inh: human S-ASM enzyme inhibition. placental ASM, HMU-PC fluorogenic substrate, 60 min. Potency, µM (doses to about 57.5 µM), without a hit: at the highest dose activity change, negative = inhibition, hits mostly inhibitors. hit rate 0.006% among 340,000; also: potency is read from the fitted curve at half-maximal effect
#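 Human placenta-derived ASM preincubated with compound 10 min at room temperature, then reacted with 9 uM (final) fluorogenic HMU-PC substrate for 60 min at 37 C. Stop solution raises pH to 10; fluorescence read at Ex 386/Em 447 nm.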
# ERG-DNA inh: ERG Ets/DNA interaction inhibition; P11308; fluorescence polarization, His-ERG Ets domain / labelled DNA; Potency, µM (series often up to 76.9 µM), for the others: at the top dose FP activity, negative = inhibition, hits mostly inhibitors; hit rate 0.028% among 370,000; AID 624246; active = well fitted inhibition curve with a large enough effect in the polarisation, with a control signal flat; inconclusive = small, poorly fitted or top-dose-only effect, or effect the other way, or a change in a side signal; inactive = no such curve, though single readings can be large or run the other way; the % refers to the polarisation;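 also: polarization taken with two DNA probes labelled with fluorescein and Texas red; potency is read from the fitted curve at half-maximal effect; % of control where 0% means no effect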
#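 His-tagged ERG Ets domain (1 uM in the protein solution; 300mM KCl, 50mM Tris-HCl, 1mM EDTA, 1mM DTT, pH 7.5) received compound, then a probe mix of 5 nM fluorescein-DNA and 100nM Texas-615-DNA. Fluorescence polarization was read for both dyes.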
# RXFP1 ag: RXFP1 (human) receptor agonism; Potency, µM (highest dose often 57.5 µM), inactives show top-dose activation, actives largely listed as activators; HEK293T-RXFP1 cAMP TR-FRET, 30 min; response scale: percent of porcine relaxin response, buffer zero; hit rate 0.3% among 370,000; Q9HBX9; AID 2676; also: potency is read from the fitted curve at half-maximal effect; % is scaled to controls: 0 for no effect and ±100 for the full control effect; nearly all actives have a fitted effect of over 60% in size
#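 HEK293 cells stably expressing RXFP1, treated 30 min at 37C with compounds plus PDE4 inhibitor Ro 20174; cAMP measured by HTRF TR-FRET. Normalized to buffer and 29 nM porcine relaxin; EC50 by Hill fit.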
# miR-21 reporter: miR-21 reporter, rising signal; HeLa miR-21 FLuc reporter, luciferase, 48 h; Potency, µM (highest dose often 38.3 µM), for the others: top-dose reporter change, positive = more light; 340,000 tested, under 10 active; AID 2288; active = well fitted rising curve with a large enough effect; inconclusive = small, poorly fitted or top-dose-only effect; inactive = no such curve, though single readings can be large or run the other way;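 further: % of control where 0% means no effect; miR-21 action dims this reporter so a rising signal means less miR-21 action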
#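 Compounds were titrated across several concentrations (up to approximately 40 uM) and incubated 48 hours with HeLa miR-21-FLuc reporter cells (miR-21 target sequence downstream of FLuc, endogenous miR-21). Readout was firefly luciferase luminescence after lytic detection reagent.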
# * marks the source's active call; other numbers are inactive results; i = inactive; ? = inconclusive; . = not tested or not shown; ! = not confirmed by another sample; [ ] = dose if it differs, or a comment. Unless noted, calls follow the shape of the dose curve; as a rule, active = well fitted curve in the direction sought with a large enough effect; inconclusive = small, poorly fitted or top-dose-only effect, or another doubt; inactive = no such curve, though single readings can be large; an effect the other way counts as inactive or inconclusive.
[1] Cc1ccc(Cl)cc1NC(=O)N1CCC2(CC1)Oc1ccccc1C(=O)N2Cc1ccccc1F
[2] Cc1ccc(NC(=O)c2sc3nc(-c4cccs4)ccc3c2N)cc1F
[3] Cc1csc(NC(=O)c2sc3nc(-c4cccs4)ccc3c2N)n1
[4] COc1ccc(OC)c(NC(=O)c2cnc(N3CCCCC3)c3ccccc23)c1
[5] Nc1ccc(N=Nc2ccccc2)c(N)n1
Compound	1	2	3	4	5
RXFP1 ag	1.5%	.	?	4.8%	1.0%
S-ASM inh	.	.	16.6%	.	1.0%
ERG-DNA inh	-0.9%	11.5%	.	-1.4%	-15.2%
Mito fusion act	.	.	11.2µM*	.	-8.8%
miR-21 reporter	-7.1%	-21.0%	-17.4%	0.1%	-39.0%
RXFP1 antagonist	5.5	11.2	28.2	-27.3	-21.8

[6] Cc1[nH]c(N=Nc2ccccc2)nc1N=Nc1ccccc1
[7] COc1ccc(CC(=O)Nc2ccc3nc(Nc4cccc(Cl)c4)cc(C)c3c2)cc1
[8] Cc1ccc(OCC(=O)Nc2ccc3nc(Nc4cccc(Cl)c4)cc(C)c3c2)cc1
[9] O=[N+]([O-])c1cccc(CNc2ccc3c(c2)CCC3)c1
[10] COc1cc(/C=N/NC(=O)c2ccccn2)ccc1OC(=O)c1ccccc1Br
Compound	6	7	8	9	10
RXFP1 ag	0.2%	4.7%	14.1µM*	3.5%	0.1%
S-ASM inh	-15.5%	.	.	-5.1%	-11.3%
ERG-DNA inh	-5.4%	3.4%	-4.2%	-5.3%	7.6%
Mito fusion act	6.9%	.	.	14.1µM*	-9.2%
miR-21 reporter	12.0%	17.2%	3.8%	-34.2%	-33.9%
RXFP1 antagonist	-93.7*	.	-10.8	-20.6	-97.3*

[11] Cc1cccc(C)c1N1CCN(C(=O)c2ccc3c(c2)OCO3)CC1
[12] CC(=O)N1CCCC1c1nc2ccccc2n1Cc1ccccc1C (stereo unspecified)
[13] CCOc1ccc(NS(=O)(=O)c2cc(NC(=O)c3cccc(C)c3)ccc2Cl)cc1
[14] CCOc1ccc(NS(=O)(=O)c2cc(C(=O)N3CCCC3)ccc2Cl)cc1
[15] CC1CCN(c2ccc(-c3cccc(NS(=O)(=O)c4ccc(F)cc4F)c3)nn2)CC1
Compound	11	12	13	14	15
RXFP1 ag	-0.5%	-1.8%	1.6%	0.0%	0.9%
S-ASM inh	4.0%	.	?	0.9%	.
ERG-DNA inh	-6.5%	0.5%	5.7%	-10.0%	-0.3%
Mito fusion act	11.5%	.	22.4µM*	5.9%	.
miR-21 reporter	-5.2%	?	20.9%	.	2.3%
RXFP1 antagonist	-61.7*	7.1	-3.3	-0.8	-18.9

[16] Cc1ccc(CNC(=O)C(Cc2ccccc2)NS(=O)(=O)c2ccc(Br)s2)cc1 (stereo unspecified)
[17] Cc1ccc(CNC(=O)C(Cc2ccccc2)NS(=O)(=O)c2cccs2)cc1 (stereo unspecified)
[18] Cc1cc(NC(=O)CCC(=O)N(CC(=O)NCC2CCCO2)c2cccc(F)c2)no1 (stereo unspecified)
[19] N#Cc1c(NC(NC(=O)c2ccco2)C(=O)c2ccccc2)sc2c1CCCC2 (stereo unspecified)
[20] COC(=O)c1cnn(-c2ccc(Cl)cc2)c1/C=N/NC(N)=S
Compound	16	17	18	19	20
RXFP1 ag	0.8%	0.0%	1.1%	1.3%	0.1%
S-ASM inh	-4.7%	-2.2%	-0.9%	-12.6%	-1.1%
ERG-DNA inh	8.3%	.	-7.7%	.	-0.4%
Mito fusion act	17.8µM*	2.2%	4.2%	12.6µM*	-2.3%
miR-21 reporter	11.1%	7.5%	-2.9%	-23.9%	25.4%
RXFP1 antagonist	-10.3	-14.3	10.2	-18.6	-16.8

# Marked active in RXFP1 antagonist (from the list above):
item | structure | S-ASM inh | ERG-DNA inh | Mito fusion act | miR-21 reporter | RXFP1 antagonist
6 | Cc1[nH]c(N=Nc2ccccc2)nc1N=Nc1ccccc1 | -15.5% | -5.4% | 6.9% | 12.0% | -93.7*
10 | COc1cc(/C=N/NC(=O)c2ccccn2)ccc1OC(=O)c1ccccc1Br | -11.3% | 7.6% | -9.2% | -33.9% | -97.3*
11 | Cc1cccc(C)c1N1CCN(C(=O)c2ccc3c(c2)OCO3)CC1 | 4.0% | -6.5% | 11.5% | -5.2% | -61.7*

# (listing goes on)
[21] Cc1cc(C)c2c(=O)n(CC(=O)Nc3ccc(Cl)cc3)sc2n1
[22] CCOc1ccc(NC(=O)Cn2sc3nc(C)cc(C)c3c2=O)cc1
[23] Cc1ccc(CCNC(=O)c2ccc(CNS(=O)(=O)c3ccccc3)cc2)cc1
[24] Cc1ccc(CCNC(=O)c2ccc(CNS(=O)(=O)c3ccc(F)cc3)cc2)cc1
[25] O=C(COc1ccc2ccccc2c1)NNC(=O)Cc1ccccc1
Compound	21	22	23	24	25
RXFP1 ag	1.1%	6.1%	-4.0%	-0.8%	12.7%
S-ASM inh	-6.6%	-3.6%	.	.	0.9%
ERG-DNA inh	-3.0%	-8.7%	?	-1.6%	5.0%
Mito fusion act	-23.8%	-20.4%	.	.	-2.6%
miR-21 reporter	18.9%	2.1%	-7.8%	0.3%	-4.4%
RXFP1 antagonist	-25.6	-66.3*	.	-70.8*	-120.0*

[26] O=C(COc1ccc2ccccc2c1)NNC(=O)Cc1cccc2ccccc12
[27] Cc1cc(NC(=O)CCC(=O)N(CC(=O)NCC2CCCO2)c2ccc(F)c(Cl)c2)no1 (stereo unspecified)
[28] O=C1C=CC(=O)N1c1ccc2c(c1)C(NC(=O)C(F)(F)F)c1ccccc1-2 (stereo unspecified)
[29] Cc1cc(Nc2ccc(F)cc2)nc(-n2nc(C)cc2C)n1
[30] Cn1c2ccccc2c2nnc(SCC(=O)Nc3cccc(C(=O)O)c3)nc21
Compound	26	27	28	29	30
RXFP1 ag	4.2%	0.1%	.	-2.4%	15.8µM*
S-ASM inh	0.8%	-1.5%	-1.2%	.	-2.8%
ERG-DNA inh	-3.8%	7.0%	-6.1%	1.5%	11.9%
Mito fusion act	2.5%	-12.5%	.	.	6.1%
miR-21 reporter	-5.8%	3.0%	.	23.0%	-4.9%
RXFP1 antagonist	-15.3	-37.8	-96.9*	-5.6	2.3

[31] CCCn1c2ccccc2c2nnc(SCC(=O)Nc3cccc(C(C)=O)c3)nc21
[32] Cc1cnc(NC(=O)Cc2ccccc2Cl)s1
[33] COC(=O)C1C(=O)c2c([nH]c(C(=O)OC3CCCC3C)c2C)CC1C (stereo unspecified)
[34] COC(=O)C1C(=O)c2c([nH]c(C(=O)OC3CCCCC3)c2C)CC1C (stereo unspecified)
[35] CCN(CC)CCCNC(=O)CSc1nc2nc(C)c(Cc3c(F)cccc3Cl)c(C)n2n1
Compound	31	32	33	34	35
RXFP1 ag	13.4%	2.4%	1.1%	8.4%	8.7%
S-ASM inh	.	3.4%	-6.1%	-0.3%	.
ERG-DNA inh	-2.1%	-0.8%	-12.2%	-3.4%	-5.8%
Mito fusion act	.	-6.4%	?	1.1%	.
miR-21 reporter	2.9%	-6.1%	-35.0%	-58.2%	-12.6%
RXFP1 antagonist	-19.8	-64.3*	-62.7*	.	-20.1

[36] Cc1oncc1C(=O)Nc1ccc(C(F)(F)F)cc1
[37] CC(C)CCN(C(=O)c1cc(=O)[nH]c2ccccc12)c1c(N)n(Cc2ccccc2)c(=O)[nH]c1=O
[38] CC(C)CCNC(=O)c1ccc(Cn2c(=S)[nH]c3ccccc3c2=O)cc1
[39] Cc1ccc(S(=O)(=O)N2CCN(C(=O)CN3C(=O)NC4(CCCCC4)C3=O)CC2)c(C)c1
[40] C/C(=N\NC(=O)CNC(=O)c1ccccc1Br)c1ccco1
Compound	36	37	38	39	40
RXFP1 ag	-0.6%	1.7%	5.7%	1.3%	-2.6%
S-ASM inh	-8.1%	10.5%	-2.5%	0.1%	-2.6%[11.5 µM]
ERG-DNA inh	17.2%	13.6%	2.1%	-7.6%	6.8%
Mito fusion act	20.6µM*!	1.6%	3.4%	1.4%	-4.9%
miR-21 reporter	-6.8%	.	-7.0%	.	-1.3%
RXFP1 antagonist	-18.9	6.6	-73.0*	-61.0*	-5.5

[41] CC(Sc1nnc(-c2ccco2)n1C)C(=O)N1C(C)CCCC1C (stereo unspecified)
[42] CCc1cc2c(=O)c(-c3ccc4c(c3)OCCO4)coc2cc1OS(C)(=O)=O
[43] COC(=O)c1ccccc1NS(=O)(=O)c1cc2c(cc1C)N(C)CCO2
[44] N#Cc1c(C(F)(F)F)cc(-c2ccccc2Cl)[nH]c1=O
Compound	41	42	43	44
RXFP1 ag	-0.3%	-2.4%	-2.1%	3.4%
S-ASM inh	5.7%	-0.1%	.	i
ERG-DNA inh	-4.0%	12.5%	-2.8%	11.4%
Mito fusion act	-1.9%	?	.	-2.6%
miR-21 reporter	1.6%	-25.6%	19.0%	1.0%
RXFP1 antagonist	-8.1	-84.4*	3.7	-110.0*
